Target: T1, Crabp1 (cellular retinoic acid binding protein 1) (Mus musculus, UniProt P62965)
T1 construct: uniformly 15N-labeled His-tagged Crabp1 (pET-15b, N-terminal His6x-tag)
Experiment: […]-1H HSQC NMR of […]N-Crabp1 with […] atRA (slow exchange)

By UniProt entry, the sequences of proteins in these tests, tags left out.
UniProt P62965, whole entry: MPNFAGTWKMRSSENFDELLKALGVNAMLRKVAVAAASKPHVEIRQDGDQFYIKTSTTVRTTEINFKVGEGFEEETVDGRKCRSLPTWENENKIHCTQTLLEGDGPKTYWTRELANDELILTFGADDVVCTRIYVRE

Kd: < 1 µM
Compound: CC1=C(/C=C/C(C)=C/C=C/C(C)=C/C(=O)O)C(C)(C)CCC1 [atRA, all-trans retinoic acid]

From article PMC6662813, “A new regulatory mechanism for Raf kinase activation, retinoic acid-bound Crabp1” (Scientific Reports, 2019)
